Reference: patent publication US5212286A, “Atrial Natriuretic/vasodilator peptide compounds” (Scios Nova Inc., priority 1986, dated 1993)

Tests used:
[1] = tested on: precontracted rabbit or rat aortic preparations; conditions: thoracic aortic segments precontracted with histamine or norepinephrine; read-out: IC50 (concentration producing half-maximal relaxation of the precontracted tissue)
Protocol: Synthetic ANVP compounds were compared to partially purified (gel filtration step) and purified (HPLC) native ANVP compounds (See FIGS. 3A-D) for their ability to relax histamine-contracted aortic rings. Rings were suspended in 10 ml aerated Kreb's buffer under 1.5 gm passive tension. Rings were precontracted with 5 X 10^-6 M histamine, washed and allowed to return to baseline tension, as described ([…]., supra). Increasing amounts of purified or synthetic ANVP compounds were then added in cumulative fashion. […] The relaxation effects of various ANVP compounds on precontracted rabbit or rat aortic preparations are shown in Table III. | Thoracic aortic segments were precontracted with histamine or | norepinephrine as previously described. Various doses of ANVP compounds | were then added and relaxation of the precontracted state was monitored. | Data are expressed as the concentration of each peptide required to | produce a halfmaximal relaxation of the precontracted tissue (IC50).

[2] = tested on: ANVP receptor sites on cultured bovine vascular smooth muscle cells; test: Displacement of specific [125I]rANVP(126-150) binding on cultured smooth muscle cells; conditions: concentration of half-maximal displacement
From the text: Specific and saturable binding is a necessary component of a hormone/receptor interaction.
Various concentrations of the peptides described were examined for […]

intact rats = test: Natriuretic and diuretic effects in intact rats (bolus injection); format: in vivo, rat
Protocol: Synthetic ANVP compounds […] hANVP(127-151) were also found to be natriuretic in the intact rat. These compounds were administered as a bolus injection to Inactin anesthetized rats (100 mg/kg, average weight 399 g) which were maintained on a constant infusion of normal saline at 2.2 ml/hr. […] Data are expressed as mean±SE.

isolated rat kidney = test: Renal function in the isolated perfused rat kidney; conditions: dose 1 μg; experimental period E; mean of 3-8 experiments

Row | Compound | IC50 [1] | Ki ([2]; Series B smooth muscle cells) | diuresis and natriuresis in intact rats, in words (intact rats; Table VII doses) | Peak Na+ Excr. (intact rats; dose 3670 pmol/kg) | Peak Urine Vol. (intact rats; dose 3670 pmol/kg) | .V (urine flow rate) (isolated rat kidney) | GFR (isolated rat kidney) | UNa.V (urinary sodium excretion rate) (isolated rat kidney) | Ki ([2]; Series A smooth muscle cells)
1 | CC[C@H](C)[C@@H]1NC(=O)[C@H](CCCNC(=N)N)NC(=O)[C@@H](CC(=O)O)NC(=O)[C@H]([C@@H](C)CC)NC(=O)[C@H](CCCNC(=N)N)NC(=O)CNC(=O)CNC(=O)[C@H](Cc2ccccc2)NC(=O)[C@@H](NC(=O)[C@H](CO)NC(=O)[C@H](CO)NC(=O)[C@@H](N)CCCNC(=N)N)CSSC[C@@H](C(=O)N[C@@H](CC(N)=O)C(=O)N[C@@H](CO)C(=O)N[C@@H](Cc2ccccc2)C(=O)N[C@@H](CCCNC(=N)N)C(=O)N[C@@H](Cc2ccc(O)cc2)C(=O)O)NC(=O)CNC(=O)[C@H](CC(C)C)NC(=O)CNC(=O)[C@H](CO)NC(=O)[C@H](CCC(N)=O)NC(=O)[C@H](C)NC(=O)CNC1=O [[D-Asp^135]rANVP(126-150), H-Arg-Ser-Ser-Cys-Phe-Gly-Gly-Arg-Ile-[D-Asp]-Arg-Ile-Gly-Ala-Gln-Ser-Gly-Leu-Gly-Cys-Asn-Ser-Phe-Arg-Tyr-OH] | 28 nM | > 40 nM | exceptions | 0.3 ± 0.1 µmol/min | 8.5 ± 0.5 µL/min |  |  |  | 
2 | CC[C@H](C)[C@@H]1NC(=O)[C@H](CCCNC(=N)N)NC(=O)[C@H](CC(=O)O)NC(=O)[C@H]([C@@H](C)CC)NC(=O)[C@H](CCCNC(=N)N)NC(=O)CNC(=O)CNC(=O)[C@H](Cc2ccccc2)NC(=O)[C@@H](NC(=O)[C@H](CO)NC(=O)[C@H](CO)NC(=O)[C@@H](N)CCCNC(=N)N)CSSC[C@@H](C(=O)N[C@@H](CC(N)=O)C(=O)N[C@@H](CO)C(=O)N[C@@H](Cc2ccccc2)C(=O)N[C@@H](CCCNC(=N)N)C(=O)N[C@@H](Cc2ccc(O)cc2)C(=O)O)NC(=O)CNC(=O)[C@H](CC(C)C)NC(=O)CNC(=O)[C@@H](CO)NC(=O)[C@H](CCC(N)=O)NC(=O)[C@H](C)NC(=O)CNC1=O [[D-Ser^141]rANVP(126-150), H-Arg-Ser-Ser-Cys-Phe-Gly-Gly-Arg-Ile-Asp-Arg-Ile-Gly-Ala-Gln-[D-Ser]-Gly-Leu-Gly-Cys-Asn-Ser-Phe-Arg-Tyr-OH] | 11 nM |  |  |  |  | 29.2 µL/min | 0.51 mL/min | 2.10 μEq/min | 40 nM
